Values quoted from earlier work, collected in patent US20090123564A1, “NOVEL COMPOSITIONS FOR HAIR DISORDERS AND PROCESS OF PREPARATION THEREOF” (priority 2006, published 2009).

System: human carcinoma nasopharynx cells
Conditions: cited from earlier work

| Substance | IC50, cytotoxic effects |
| --- | --- |
| vernomygdine | 1.5 µg/mL |
| vernodaline | 1.8 µg/mL |
